# Columns and labels:
# Prolyl endopeptidase FAP [1] = target: T1, Prolyl endopeptidase FAP (Homo sapiens, UniProt Q12884); assay: biochemical
# T1 sequence (Q12884 whole entry): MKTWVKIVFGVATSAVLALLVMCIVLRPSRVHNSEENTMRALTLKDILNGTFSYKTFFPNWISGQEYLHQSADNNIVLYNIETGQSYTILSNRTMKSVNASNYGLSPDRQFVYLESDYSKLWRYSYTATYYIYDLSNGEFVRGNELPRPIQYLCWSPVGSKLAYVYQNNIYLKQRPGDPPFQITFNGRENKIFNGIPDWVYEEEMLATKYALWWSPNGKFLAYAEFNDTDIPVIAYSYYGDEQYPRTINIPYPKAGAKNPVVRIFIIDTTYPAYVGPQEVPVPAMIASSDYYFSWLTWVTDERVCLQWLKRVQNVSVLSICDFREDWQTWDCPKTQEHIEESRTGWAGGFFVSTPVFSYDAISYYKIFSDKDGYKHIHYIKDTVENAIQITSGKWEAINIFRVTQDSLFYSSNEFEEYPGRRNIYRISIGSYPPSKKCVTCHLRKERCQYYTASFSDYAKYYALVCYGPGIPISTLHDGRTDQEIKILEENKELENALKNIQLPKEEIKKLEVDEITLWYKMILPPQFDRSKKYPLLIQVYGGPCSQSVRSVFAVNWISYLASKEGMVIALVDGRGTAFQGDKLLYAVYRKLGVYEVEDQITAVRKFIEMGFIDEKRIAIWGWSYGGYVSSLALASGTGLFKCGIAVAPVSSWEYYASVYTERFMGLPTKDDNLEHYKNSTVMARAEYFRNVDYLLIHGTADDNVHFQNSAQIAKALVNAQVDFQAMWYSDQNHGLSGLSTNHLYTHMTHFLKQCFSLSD
# Prolyl endopeptidase FAP [2] = target: T1, Prolyl endopeptidase FAP; assay: Inhibition of recombinant human FAP extracted from S2 cells using fluorogenic FAP as specific substrate measured after 10 mins incubation by 7-amino-4-methylcoumarin in assay
Ki (Prolyl endopeptidase FAP [1]) [nM],IC50 (Prolyl endopeptidase FAP [2]) [nM],Compound
590,1300,CC(C)(C)C(=O)Oc1ccc(S(=O)(=O)Nc2ccccc2C(=O)NCC(=O)O)cc1
730,–,CC(C)(C)C(=O)Oc1ccc(S(=O)(=O)Nc2ccccc2C(=O)NCC(=O)O)cc1 [SIVELESTAT SODIUM]

# Reference: ChEMBL document CHEMBL6087393, “Sensitive quantification of fibroblast activation protein and high-throughput screening for inhibition by FDA-approved compounds” (Eur J Med Chem, 2024)
